Source: ChEMBL document CHEMBL2163206, “New nitrogen containing substituents at the indole-2-carboxamide yield high potent and broad spectrum indolylarylsulfone HIV-1 non-nucleoside reverse transcriptase inhibitors” (J Med Chem, 2012)

Assays:
[1] = target: Human immunodeficiency virus type 1 reverse transcriptase (Human immunodeficiency virus 1) (UniProt Q72547); test: Potency index, ratio of IC50 for Efavirenz to IC50 for compound against wild type HIV1 reverse transcriptase
[2] = target: Human immunodeficiency virus type 1 reverse transcriptase (Human immunodeficiency virus 1) (UniProt Q72547); test: Potency index, ratio of IC50 for nevirapine to IC50 for compound against wild type HIV1 reverse transcriptase

Row | SMILES | Ratio IC50 [1] | Ratio IC50 [2]
1 | Cc1cc(C)cc(S(=O)(=O)c2c(C(=O)NCc3ccncc3)[nH]c3ccc(Cl)cc23)c1 | 2 | 
2 | Cc1cc(C)cc(S(=O)(=O)c2c(C(=O)NCc3cccnc3)[nH]c3ccc(Cl)cc23)c1 |  | 20
